Results published in ChEMBL document CHEMBL3526101, “Discovery and characterization of novel, potent, and selective cytochrome P450 2J2 inhibitors” (Drug Metab Dispos, 2013).

Protein sequences, listed by entry. Tags and fused reporters are not part of them.
UniProt P11712, whole entry: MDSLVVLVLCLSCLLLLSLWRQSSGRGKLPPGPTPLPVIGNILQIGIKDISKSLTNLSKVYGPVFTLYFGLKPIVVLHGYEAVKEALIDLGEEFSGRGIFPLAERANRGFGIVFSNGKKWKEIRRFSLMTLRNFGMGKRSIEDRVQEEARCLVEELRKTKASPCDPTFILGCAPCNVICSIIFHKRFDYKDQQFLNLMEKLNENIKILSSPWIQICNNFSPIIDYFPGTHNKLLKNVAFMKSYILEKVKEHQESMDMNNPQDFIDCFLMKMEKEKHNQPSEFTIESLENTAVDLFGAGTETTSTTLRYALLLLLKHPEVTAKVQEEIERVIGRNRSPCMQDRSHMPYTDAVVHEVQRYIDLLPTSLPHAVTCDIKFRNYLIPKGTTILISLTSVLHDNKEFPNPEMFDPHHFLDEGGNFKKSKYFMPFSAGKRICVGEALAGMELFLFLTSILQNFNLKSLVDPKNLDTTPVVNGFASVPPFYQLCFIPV

Each molecule was assayed against Cytochrome P450 2C9 (Homo sapiens, UniProt P11712).

Compound	IC50 [µM]
CC(C)COCC(CN(Cc1ccccc1)c1ccccc1)N1CCCC1 (stereo unspecified) [BEPRIDIL]	4.31

The molecules below were run against T1, Cytochrome P450 2J2 (Homo sapiens, UniProt P51589).
T1 sequence (P51589 whole entry): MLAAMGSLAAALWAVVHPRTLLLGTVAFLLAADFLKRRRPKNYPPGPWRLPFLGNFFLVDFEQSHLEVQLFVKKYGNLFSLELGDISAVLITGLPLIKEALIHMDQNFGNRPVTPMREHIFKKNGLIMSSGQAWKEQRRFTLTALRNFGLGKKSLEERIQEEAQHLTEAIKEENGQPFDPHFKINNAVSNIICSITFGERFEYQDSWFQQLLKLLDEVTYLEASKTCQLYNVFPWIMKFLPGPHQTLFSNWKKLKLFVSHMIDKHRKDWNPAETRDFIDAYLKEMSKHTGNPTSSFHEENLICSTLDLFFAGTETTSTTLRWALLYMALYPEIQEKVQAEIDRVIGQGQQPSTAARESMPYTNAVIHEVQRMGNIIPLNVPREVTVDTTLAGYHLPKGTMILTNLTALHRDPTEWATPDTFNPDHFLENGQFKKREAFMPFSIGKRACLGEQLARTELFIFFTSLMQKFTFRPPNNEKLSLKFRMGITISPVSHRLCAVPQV

Compound	IC50 [µM]
CN1C(C(=O)Nc2ccccn2)=C(O)c2sccc2S1(=O)=O [TENOXICAM]	> 50
Clc1ccccc1CN1CCc2sccc2C1 [TICLOPIDINE]	21.8
CC(C)Cc1ccc(C(C)C(=O)O)cc1 (stereo unspecified) [IBUPROFEN]	> 50
CNCCCN1c2ccccc2CCc2ccccc21 [DESIPRAMINE]	> 50
CN/C(=N/CCSCc1nc[nH]c1C)NC#N [CIMETIDINE]	> 50
O=C(O)Cc1ccccc1Nc1c(Cl)cccc1Cl [DICLOFENAC]	> 50
CNCCC(Oc1ccc(C(F)(F)F)cc1)c1ccccc1 (stereo unspecified) [FLUOXETINE]	> 50
CN(C)CCOC(c1ccccc1)c1ccccc1 [DIPHENHYDRAMINE]	> 50
CCc1cccc2cc(C(O)CNC(C)(C)C)oc12 (stereo unspecified) [BUFURALOL]	> 50
Cc1cccc(C)c1OCC(C)N (stereo unspecified) [MEXILETINE]	> 50
CCn1cc(C(=O)O)c(=O)c2cc(F)c(N3CCNCC3)cc21 [NORFLOXACIN]	2.56
O=C(CCCN1CCC(O)(c2ccc(Cl)cc2)CC1)c1ccc(F)cc1 [HALOPERIDOL]	4.69
CC(C)NCC(O)COc1cccc2ccccc12 (stereo unspecified) [PROPRANOLOL]	> 50
COC(=O)C1=C(C)NC(C)=C(C(=O)OCCN(C)Cc2ccccc2)C1c1cccc([N+](=O)[O-])c1 (stereo unspecified) [NICARDIPINE]	1.69
Cc1cc(=O)n(-c2ccccc2)n1C [ANTIPYRINE]	> 50
